Assay results taken from PubChem BioAssay AID622 (Vanderbilt High Throughput Screening Facility, 2007).
This is a selection; strong and weak results do not stand in their true shares. Active and inactive are the calls of the source.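 The calls were made as follows: active = fluorescence slope higher than the sample average by over 3 SD (cut at about -0.22 in these data, passing the limit was not always enough); inactive = the rest.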

The chains behind the UniProt entries cited, without tags or fusion partners. Where a name states a change or a piece, a line headed by the entry shows the natural chain unless it says otherwise.
UniProt P62483: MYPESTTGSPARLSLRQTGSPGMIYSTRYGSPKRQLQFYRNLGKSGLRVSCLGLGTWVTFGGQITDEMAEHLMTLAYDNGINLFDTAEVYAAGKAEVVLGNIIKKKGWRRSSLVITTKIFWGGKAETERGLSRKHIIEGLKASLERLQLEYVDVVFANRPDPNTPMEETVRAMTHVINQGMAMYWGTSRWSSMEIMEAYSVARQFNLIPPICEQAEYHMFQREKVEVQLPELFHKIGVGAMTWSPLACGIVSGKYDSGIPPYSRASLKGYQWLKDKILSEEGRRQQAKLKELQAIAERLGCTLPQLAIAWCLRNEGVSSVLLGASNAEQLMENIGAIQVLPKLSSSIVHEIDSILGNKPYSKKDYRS

What follows are molecules tested against Voltage-gated potassium channel subunit beta-2 (Rattus norvegicus) (UniProt P62483) (assay: inhibitors of rat Kvbeta2 reductase activity – biochemical, NADPH fluorescence, primary screen (AID 622;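 also: slope of raw intensity against log time taken from 70 to 1610 s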)). Details: recombinant KvBeta, 4-cyanobenzaldehyde reduction, at 10 µM, stronger effect = higher value.
For `O=P(Nc1nccs1)(c1ccccc1)c1ccccc1`, the fluorescence slope was inactive: -0.597. For `Cc1nn(-c2ccccc2)c2c1P(=O)(N1CCOCC1)N(C)C(c1ccccc1)=N2` (configuration not stated), the fluorescence slope was inactive: -0.579. In the case of `Cc1ccc(OCC(=O)OC2CN3CCC2CC3)cc1` (configuration not stated), the fluorescence slope is reported as inactive: -0.384. With `Cc1cccc(OCC(=O)OC2CN3CCC2CC3)c1` (configuration not stated) the fluorescence slope was inactive: -0.451. For `CCOP1(=S)c2c(C)nn(CCC#N)c2N=C(c2ccccc2F)N1C` (configuration not stated), the fluorescence slope was inactive: -0.495. For `O=C(COc1ccccc1)OC1CN2CCC1CC2` (configuration not stated), the fluorescence slope was inactive: -0.576. With `COP1(=S)c2c(C)nn(CCC#N)c2N=C(c2ccc(F)cc2)N1C` (configuration not stated) the fluorescence slope was inactive: -0.577.
